Measured values from patent publication US8853394B2, “Pharmacokinetically improved compounds” (Surface Logix, Inc., priority 2006, dated 2014).

Protein sequences, listed by entry. Tags and fused reporters are not part of them. Residues count along the entry.
UniProt P11541, 2-856 limits assumed: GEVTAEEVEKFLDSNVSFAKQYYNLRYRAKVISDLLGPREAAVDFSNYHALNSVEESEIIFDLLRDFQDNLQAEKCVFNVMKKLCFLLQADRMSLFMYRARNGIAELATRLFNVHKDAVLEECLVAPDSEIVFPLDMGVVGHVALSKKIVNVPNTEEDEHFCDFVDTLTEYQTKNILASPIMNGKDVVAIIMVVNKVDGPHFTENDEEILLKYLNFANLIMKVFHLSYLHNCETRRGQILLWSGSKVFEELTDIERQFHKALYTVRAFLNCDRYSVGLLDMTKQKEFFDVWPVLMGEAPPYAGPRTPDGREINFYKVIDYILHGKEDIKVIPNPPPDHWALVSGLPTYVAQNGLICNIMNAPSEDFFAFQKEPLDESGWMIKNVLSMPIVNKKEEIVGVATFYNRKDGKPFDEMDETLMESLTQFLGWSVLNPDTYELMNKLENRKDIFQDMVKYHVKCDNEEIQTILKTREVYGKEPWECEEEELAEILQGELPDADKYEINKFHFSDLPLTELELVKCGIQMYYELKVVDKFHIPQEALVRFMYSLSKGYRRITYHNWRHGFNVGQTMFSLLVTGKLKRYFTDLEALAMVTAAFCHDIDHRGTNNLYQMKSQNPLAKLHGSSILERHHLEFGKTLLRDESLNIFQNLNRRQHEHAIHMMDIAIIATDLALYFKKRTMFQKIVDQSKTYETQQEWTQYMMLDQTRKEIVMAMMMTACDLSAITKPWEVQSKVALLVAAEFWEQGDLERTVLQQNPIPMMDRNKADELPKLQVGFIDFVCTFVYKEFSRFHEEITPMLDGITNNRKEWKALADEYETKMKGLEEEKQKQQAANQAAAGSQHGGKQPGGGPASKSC
UniProt P23439, 2-850 limits assumed: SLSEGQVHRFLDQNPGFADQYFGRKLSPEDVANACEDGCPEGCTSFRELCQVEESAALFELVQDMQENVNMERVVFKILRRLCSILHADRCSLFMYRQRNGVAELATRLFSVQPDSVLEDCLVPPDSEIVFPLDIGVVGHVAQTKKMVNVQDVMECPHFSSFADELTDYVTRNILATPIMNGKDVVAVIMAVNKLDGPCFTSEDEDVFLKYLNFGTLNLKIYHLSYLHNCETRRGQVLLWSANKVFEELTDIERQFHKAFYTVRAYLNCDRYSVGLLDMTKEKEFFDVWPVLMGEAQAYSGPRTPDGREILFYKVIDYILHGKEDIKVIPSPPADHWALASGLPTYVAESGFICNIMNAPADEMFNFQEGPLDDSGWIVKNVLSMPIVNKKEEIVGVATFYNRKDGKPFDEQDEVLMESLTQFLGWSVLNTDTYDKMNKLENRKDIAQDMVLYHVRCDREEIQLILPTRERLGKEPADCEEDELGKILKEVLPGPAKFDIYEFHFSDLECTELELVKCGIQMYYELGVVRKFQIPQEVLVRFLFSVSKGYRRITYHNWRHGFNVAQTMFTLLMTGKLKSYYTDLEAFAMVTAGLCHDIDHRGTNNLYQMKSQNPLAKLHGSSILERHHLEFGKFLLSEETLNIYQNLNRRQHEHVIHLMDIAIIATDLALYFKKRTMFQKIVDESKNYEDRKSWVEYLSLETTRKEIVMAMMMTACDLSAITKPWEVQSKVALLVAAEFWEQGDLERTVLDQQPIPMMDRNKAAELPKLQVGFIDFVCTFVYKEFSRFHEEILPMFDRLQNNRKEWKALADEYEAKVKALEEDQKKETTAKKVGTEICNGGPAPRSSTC
UniProt Q14432, whole entry, looked up: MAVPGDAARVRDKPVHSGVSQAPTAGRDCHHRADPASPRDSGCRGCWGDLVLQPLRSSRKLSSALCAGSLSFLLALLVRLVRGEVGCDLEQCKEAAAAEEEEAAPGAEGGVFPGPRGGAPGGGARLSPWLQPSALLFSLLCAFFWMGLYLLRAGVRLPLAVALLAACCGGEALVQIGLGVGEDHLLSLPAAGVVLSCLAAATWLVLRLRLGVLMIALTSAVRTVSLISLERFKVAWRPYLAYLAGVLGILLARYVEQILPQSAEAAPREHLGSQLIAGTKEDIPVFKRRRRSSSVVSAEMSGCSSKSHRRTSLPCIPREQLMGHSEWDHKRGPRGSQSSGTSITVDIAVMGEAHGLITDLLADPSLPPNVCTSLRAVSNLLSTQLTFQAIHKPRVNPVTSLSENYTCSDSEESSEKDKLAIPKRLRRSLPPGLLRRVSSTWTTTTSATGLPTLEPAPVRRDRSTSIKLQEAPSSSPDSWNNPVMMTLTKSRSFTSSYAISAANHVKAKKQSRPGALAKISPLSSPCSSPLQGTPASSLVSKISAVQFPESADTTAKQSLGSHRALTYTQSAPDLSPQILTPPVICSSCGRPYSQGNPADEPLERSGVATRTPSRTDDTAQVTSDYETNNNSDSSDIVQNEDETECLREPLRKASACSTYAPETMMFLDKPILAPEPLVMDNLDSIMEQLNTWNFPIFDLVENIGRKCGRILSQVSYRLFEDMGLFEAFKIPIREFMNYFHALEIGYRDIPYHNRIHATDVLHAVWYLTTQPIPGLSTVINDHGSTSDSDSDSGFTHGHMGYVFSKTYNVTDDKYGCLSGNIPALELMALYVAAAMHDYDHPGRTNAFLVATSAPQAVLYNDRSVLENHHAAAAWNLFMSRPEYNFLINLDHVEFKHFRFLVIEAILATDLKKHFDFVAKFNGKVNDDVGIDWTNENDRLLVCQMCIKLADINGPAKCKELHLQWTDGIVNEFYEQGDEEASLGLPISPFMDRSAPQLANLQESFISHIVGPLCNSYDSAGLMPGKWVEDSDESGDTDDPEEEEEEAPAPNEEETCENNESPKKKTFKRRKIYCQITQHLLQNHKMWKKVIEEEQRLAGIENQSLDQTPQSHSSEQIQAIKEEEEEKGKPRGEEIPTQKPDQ

Assays:
Non-Spec Binding = type: in vitro ADME
PDE-6 bovine = PDE-6 bovine (Bos taurus, UniProt P11541+P23439); assay: PDE-6 bovine inhibition; type: biochemical; settings: read-out: PDE-6 bovine IC50
PDE-3 = PDE-3 (UniProt Q14432); assay: PDE-3 inhibition; type: biochemical; settings: read-out: PDE-3 IC50
PDE-1 = PDE-1 inhibition; type: biochemical; settings: read-out: PDE-1 IC50
human serum components = assay: Protein Binding
Protocol: In general, protein binding is assessed by measuring the capacity of molecules of the invention to bind to one or more human serum components or mimics thereof. In one embodiment, suitable functional residues may be identified by screening of surfaces comprising such residues for their ability to resist adsorption of serum components, including, but not limited to serum proteins, and preferably human serum proteins. Candidate residues can be screened directly by attaching them to a solid support and testing the support for protein resistance. Alternatively, candidate residues are incorporated into, or linked to molecules of pharmaceutical interest. Such compounds may be synthesized on a solid support, or bound to a solid support after synthesis. In a non-limiting example of a direct binding assay, immobilized candidate functional residues or molecules incorporating such residues are tested for their ability to bind serum components. The serum components can be labeled with a signaling moiety for detection, or a labeled secondary reagent that binds to such serum components can be used.
A direct binding analysis can also be preformed in liquid phase. For example, test compounds can be mixed with one or more serum components in liquid phase, and the unbound molecules determined.

PDE5 = PDE5 (Homo sapiens, UniProt O76074); assay: PDE-5 human inhibition; type: biochemical; settings: read-out: PDE-5 human IC50
PDE-4 human = PDE-4 human inhibition; type: biochemical; settings: read-out: PDE-4 human IC50
Solubility = type: physicochemical
Caco-2 = Caco-2 permeability
From the text: Several model systems are available, employing monolayers of various cell types, for evaluation of active transport of pharmaceutically active substances. For example, monolayers of Caco-2 intestinal epithelial cells can be used to evaluate active transport of substances between the intestine and the bloodstream. When plated on a surface which allows the flow of material from apical to basolateral and vice versa, such cells form a biological membrane which can be used to simulate physiological absorption and bioavailability. In another example, mouse brain capillary endothelial cell (MBEC) lines have been established to evaluate active transport in and out of the central nervous system. Another example of such cells is HT29 human colon carcinoma cells. Further, monolayers expressing particular transporter proteins can be established using transfected cells. For example, Sasaki et al (2002) J. Biol. Chem. 8:6497 used a double-transfected Madin-Darby canine kidney cell monolayer to study transport of organic anions.

mouse 3T3 = assay: Chronic Cytoxicity (mouse 3T3); type: cell-based
[1] = T1/2 in rat liver microsomes; type: in vitro ADME
PAMPA permeability = type: in vitro ADME
[2] = T1/2 in human liver microsomes; type: in vitro ADME

| Structure (SMILES) | Non-Spec Binding (%) (Non-Spec Binding) | IC50 (PDE-6 bovine) | IC50 (PDE-3) | IC50 (PDE-1) | Protein Binding (%) (human serum components) | IC50 (PDE5) | IC50 (PDE-4 human) | Solubility (ug/mL) pH 2.7 (Solubility) | Solubility (ug/mL) pH 7.4 (Solubility) | Caco-2 (10^−6 cm/s) AtoB (Caco-2; AtoB) | Caco-2 (10^−6 cm/s) BtoA (Caco-2; BtoA) | GI50 (mouse 3T3) | LC50 (50% lethal concentration) (mouse 3T3; read-out: Chronic Cytoxicity (mouse 3T3) LC50, mouse 3T3) | T1/2 (min) liver microsomes rat [1] | PAMPA (10^−6 cm/s) Hex (PAMPA permeability; Hex) | PAMPA (10^−6 cm/s) Lec (PAMPA permeability; Lec) | T1/2 (min) liver microsomes human [2] |
| --- | --- | --- | --- | --- | --- | --- | --- | --- | --- | --- | --- | --- | --- | --- | --- | --- | --- |
| CCCc1nc(C)c2c(=O)[nH]c(-c3cc(S(=O)(=O)N4CCN(C(=O)CN5CCOCC5)CC4)ccc3OCC)nn12 | 6.6% | 1.3 nM | 4000 nM | 9.3 nM | 84.5% | 0.2 nM | 4300 nM | >124.4 ug/mL | >116.7 ug/mL |  |  |  |  |  |  |  |  |
| CCCc1nc(C)c2c(=O)[nH]c(-c3cc(S(=O)(=O)N(C)CCOC)ccc3OCC)nn12 | 23.64% | 1.97 nM | 1290 nM | 17.2 nM | 97.4% | 0.163 nM | 1840 nM | >50 ug/mL | >50 ug/mL | 51.85 10^−6 cm/s | 56.25 10^−6 cm/s | 100000 nM | > 100000 nM | 12.34 min | 78.19 10^−6 cm/s | 7.14 10^−6 cm/s | 19.3 min |
